In publication PMC9536293, “Targeting extracellular matrix remodeling sensitizes glioblastoma to ionizing radiation” (Neuro-Oncology Advances, 2022):

How the values were obtained:
913-GSCs [1] = test: Invasion through a Matrigel/HA matrix (XCELLigence); conditions: 0.30 µM
[2] = test system: 913-GSCs intracranial tumors; test: Orthotopic 913-GSC brain tumor survival study in athymic nude mice; assay type: in vivo, mouse
Method: Animal studies were performed in accordance with University of Miami institutional guidelines. Eight-week-old female nude mice (Charles River) were injected intracranially with luciferase-expressing 913-GSC neurospheres with or without shGFP and shMT1-MMP stable expression, into the right cerebral cortex at a depth of 3 mm. Tumor growth was monitored twice weekly and quantified using bioluminescent imaging (BLI). Signal intensity was measured as photon counts within a Region Of Interest (ROI). One day post inoculation, mice were equally distributed into groups of treatment so that each group contained mice with similar tumor burden, measured by BLI. Mice that received (R)-ND336, were given the drug subcutaneously 5 days prior, on the day of, and 5 days post radiation at 25mg/kg daily. The treatment was then continued thrice weekly for an additional two months. The radiation groups received one single 12 Gy dose (equivalent to a BED—Biologically Effective Dose—between 26 and 40 based on a a/b value for gliomas ranging from 5 to 10[20]), using an XRad 320 cabinet irradiator to focally irradiate the right brain hemisphere with lead shielding to protect all other sites. Animal appearance, behavior, and weight were monitored to evaluate tumor progression as per a University of Miami approved IACUC protocol.
To test (R)-ND336 efficacy in vivo, 7 × 10^4 913-GSCs were inoculated stereotactically into the brains of athymic nude mice. Tumor growth was monitored twice weekly by bioluminescent imaging (BLI). One day post inoculation, the mice were equally distributed into four groups of treatments so that each group contained mice with similar tumor burden. Mice were treated daily with 25 mg/kg (R)-ND336 s.c. for 5 days prior to a single dose of 12 Gy of X-rays[20]; and for an additional 5 days after irradiation in the IR+ (R)-ND336 group, while the (R)-ND336 only group received the drug regimen. We chose this regimen to ensure MT1-MMP inhibition at the time of irradiation and afterwards, during DNA repair.

913-GSC and 821-GSCs = test: Relative cell growth of GSCs; conditions: 913- and 821-GSCs; 0.3uM; up to 4 days
913-GSCs [3] = test: Invasion through a 3D decellularized brain matrix (invadopodia length); conditions: 3D brain matrix
913-GSCs [4] = test: Clonogenic (colony formation) assay with increasing radiation doses; conditions: 0.15 μM, increasing IR doses

SMILES: NCc1ccc(Oc2ccc(S(=O)(=O)C[C@H]3CS3)cc2)cc1
- invasion through Matrigel/HA matrix (913-GSCs [1]): reduce invasion
- effect on median survival with radiation vs radiation alone ([2]; IR 12 Gy + drug 25 mg/kg s.c. vs IR only (77 days)): almost doubling the median survival
- Median OS ([2]; IR (single 12 Gy) + drug 25 mg/kg s.c., nude mice with 913-GSC brain tumors): 148 days
- effect on survival, drug alone ([2]; drug alone, 25 mg/kg s.c.): did not extend survival
- cell growth (913-GSC and 821-GSCs): reduced
- invasion through brain matrix (913-GSCs [3]): reduce invasion
- sensitization to radiation (clonogenic survival) (913-GSCs [4]): capable of sensitizing 913-GSCs to several IR doses
